Experimental findings from patent publication US20240376109A1, “PYRAZOLO[1,5-A]PYRIMIDINE COMPOUND FOR THE TREATMENT OF DERMAL DISORDERS” (OTSUKA PHARMACEUTICAL CO., LTD., priority 2021, published 2024) are described below.

Chains of the proteins cited; added tags and fusions are not shown. Residues count along the entry.
UniProt P55085, 26-397 limits assumed: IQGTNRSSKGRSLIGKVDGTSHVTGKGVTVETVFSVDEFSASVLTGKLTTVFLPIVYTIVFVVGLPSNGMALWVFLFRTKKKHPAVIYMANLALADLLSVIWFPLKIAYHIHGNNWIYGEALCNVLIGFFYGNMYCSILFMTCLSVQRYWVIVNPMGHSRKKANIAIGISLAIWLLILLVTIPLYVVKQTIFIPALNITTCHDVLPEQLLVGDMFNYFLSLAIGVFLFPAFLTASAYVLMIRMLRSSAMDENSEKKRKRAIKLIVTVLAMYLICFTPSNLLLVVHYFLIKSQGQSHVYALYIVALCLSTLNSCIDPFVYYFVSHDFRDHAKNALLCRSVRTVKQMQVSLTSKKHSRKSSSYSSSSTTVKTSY

For the test, the target named is PAR2 (Homo sapiens, UniProt P55085). The test can be described thus: Intracellular calcium concentration measurement (SLIGKV-NH2-induced calcium change, Fluo-8, FDSS/μCELL). The format is cell-based. The settings on record: HEK293 cells; SLIGKV-NH2 10 μM-induced intracellular calcium change.

For the compound `CCC(CC)c1cc(CC2CCCC2)nc2cc(C(=O)N3CCCC(OC)C3(C)C)nn12` (centres unmarked), the 50% inhibitory concentration (IC50) turned out to be 41 nM.

In the case of `CCC(C)c1cc(CC2CCCCCC2)nc2cc(C(=O)N3CCCCCCC3)nn12` (centres unmarked), the half-inhibitory concentration (IC50) was 257 nM.
